The source of these data is patent publication US4007196A, “4-Phenylpiperidine compounds” (priority 1973, dated 1977).

This assay deals with 5HT-uptake. Kind of assay: Antagonism of p-chloroamphetamine (PCA)-induced 5HT-depletion from rat brain (5HT-uptake inhibitory activity). The assay is classed as in vivo. The settings on record: for ED50: rat brain. An excerpt:
5HT-uptake inhibitory activity
Antagonism of p-chloroamphetamine (PCA)-induced 5HT-depletion from rat brain: […]

Where [1] appears, read: sc, test drugs administered s.c. simultaneously with PCA, read-out: ED50 s.c., antagonism of PCA-induced 5HT-depletion.

Where a name gives a salt, the structure may show the parent alone. Read-outs that look alike come from different tables or passages of the source.

Usually ED50 stands for the midpoint of the dose-response relation. On to `CN(C)CCCN1c2ccccc2CCc2ccc(Cl)cc21` [Chlorimipramine], for which the “ED50 p.o., antagonism of PCA-induced 5HT-depletion” value (po, 3 h) is on record as “+”. Further, the ED50 by setting is: (po, p.o., test drugs administered 2 hours before PCA, read-out: ED50 p.o., antagonism of PCA-induced 5HT-depletion) 42 mg/kg; under setting [1], 1 mg/kg.
As to `Fc1ccc(C2CCNCC2COc2ccc3c(c2)OCO3)cc1` (single isomer, unassigned) [GF 74, (-)-α-4-(4-Fluorophenyl)-3-(1,3-benzdioxolyl-(3))-oxymethyl piperidine maleate], for the setting “comparison in words”, the “5HT potentiator activity compared with Imipramine” value is “more active 5HT potentiators than is Imipramine”. Further, the ED50 was 0.8 mg/kg (po, p.o., test drugs administered 3 hours before PCA, read-out: ED50 p.o., antagonism of PCA-induced 5HT-depletion); 2 to 10 mg/kg (po, p.o., test drugs administered 18 hours before PCA, read-out: ED50 p.o., antagonism of PCA-induced 5HT-depletion); 0.2 mg/kg under setting [1].
